{
  "source": "patent US9845310B2",
  "about": "(priority 2015, dated 2017)",
  "system": "heart failure rat model",
  "type": "in vivo",
  "conditions": "male Lewis rats, heart failure by permanent ligation of left descending coronary artery, ejection fraction <35%; dosed acutely for 30 min",
  "procedure": "Male Lewis rats (Charles River, USA) at 2-3 months of age were used for the study. […] APJ agonists were administered dose dependently acutely for a period of 30 min.",
  "data": [
    {"smiles": "COc1cccc(OC)c1-n1c(NS(=O)(=O)[C@@H](C)[C@H](O)c2ncc(C)cn2)nnc1-c1cncc(C)c1", "note": "[Example 371.0, (1R,2S)-N-(4-(2,6-dimethoxyphenyl)-5-(5-methylpyridin-3-yl)-4H-1,2,4-triazol-3-yl)-1-hydroxy-1-(5-methylpyrimidin-2-yl)propane-2-sulfonamide]", "values": [
      {"measurement": "cardiac contractility as measured by dP/dtmax (derivative of left ventricular pressure)", "result": "increase in cardiac contractility"}
    ]}
  ]
}
